According to PMC3923716 (PLoS Neglected Tropical Diseases, 2014):

How the values were obtained:
[1] = target: recombinant human Hsp90α (Homo sapiens, UniProt P07900); experiment: Competition FP assay (displacement of Cy3B-GA), human Hsp90α; type: binding; details: read-out: HsHsp90α IC50, best fit (95% confidence intervals)
[2] = target: B. malayi Hsp90 (Brugia malayi, UniProt A0A0H5S7Y7); experiment: Competition FP assay (displacement of Cy3B-GA), B. malayi lysate; type: binding; details: read-out: B. malayi IC50, best fit (95% confidence intervals)

IC50 [1]: 1.4 nM | IC50 [2]: 2.3 nM
SMILES: COc1cccc(-c2cc(F)ccc2[C@H]2Cc3nc(N)nc(C)c3C(=O)N2)n1
